Measured values as given in US20240123036A1, “COMPOSITIONS AND METHODS FOR THE TREATMENT OF GRAFT VERSUS HOST DISEASE” (VectivBio AG, priority 2021, published 2024).

Test system: cytarabine-induced damage in BALB/cJ female mice

With “hGLP-2: unmodified hGLP-2, comparator given twice daily at a nominal dose of 0.60 mg/kg combined with cytarabine (HADGSFSDEMNTILDNLAARDFINWLIQTKITD; Glucagon-like peptide 2; UniProt P01275 146-178, looked up) [reference compound]” the initial weight loss (combination with cytarabine, apraglutide 0.11 mg/kg, hGLP-2 0.60 mg/kg twice daily) was “did not decrease”, the “body weight and survival in animals recovering from cytarabine treatment” value (combination with cytarabine, apraglutide 0.11 mg/kg, hGLP-2 0.60 mg/kg twice daily, FIG. 18) was “a trend towards increased body weight and survival” and the “polymorphonuclear (PMN) cell count” value (cytarabine 30 mg/kg twice per day, alone or combined with hGLP-2 or apraglutide, FIG. 20) was “not reversed”.
